Conditions: nude mice, intravenous

For “avelumab-maleimide-Pluronic F68-chlorin e6 [AVE-Mal-PF68-Ce6]”, the “fluorescence in the body compared to avelumab-maleimide-polyethylene glycol 2k-chlorin e6 and avelumab-chlorin e6 injection groups” value (1.78 mg/kg based on chlorin e6, imaged for 144 hours) was “stronger fluorescence could be confirmed for a significantly longer time” and the “fluorescence relative to avelumab-chlorin e6 or avelumab-maleimide-polyethylene glycol 2k-chlorin e6 injection group” value (at 144 hours) was “about 2.7 times”.

— patent US20240000961A1, “ANTIBODY-BASED CONJUGATE FOR ENHANCING THERAPEUTIC EFFECT OF TARGETED THERAPEUTIC AGENT” (THE CATHOLIC UNIVERSITY OF KOREA INDUSTRY-ACADEMIC …, priority 2020, published 2024)
